Reference: patent publication US20080095857A1, “Carrier system in the form of protein-based nanoparticles for the cell-specific enrichment of pharmaceutically active substances” (LTS LOHMANN THERAPIE-SYSTEME AG LOHMANNSTRASSE 2, priority 2004, published 2008)

Tests used:
SK-Br-3 cells = test: Control: absorption after pre-incubation of the cells with free Trastuzumab (FACS, CLSM); assay type: cell-based, human; conditions: SK-Br-3 cells pre-incubated 30 minutes with 2.5 μg/ml free Trastuzumab per 2×10^5 cells
Protocol: On the one hand, nanoparticles were used which were not loaded with a specific antibody. On the other hand, the experiments were made with MCF-7 cells (normal BER2 expression). Furthermore, control experiments were carried out with SK-Br-3 cells which were pre-incubated for 30 minutes with 2.5 μg/ml free anti-BER2 antibodies (Trastuzumab) per 2×10^5 cells. After this period, the nanoparticles loaded with the anti-HER2 antibody were added. The cellular absorption was evaluated qualitatively by confocal microscopy as well as quantitatively by flow cytometry.

[1] = system: Human breast cancer cell lines (SK-Br-3-, MCF-7-, BT474 cells) with expression of the HER2 surface antigen; test: Cell-specific absorption of anti-HER2-antibody-modified nanoparticles in breast cancer cells (FACS, CLSM); assay type: cell-based; conditions: 100 μg/ml, 3 hours, FACS and CLSM (FIG. 2)

## Trastuzumab-modified nanoparticles: Gelatine A nanoparticles, NeutrAvidin-modified, loaded with biotinylated antibody Trastuzumab (Herceptin)
SK-Br-3 cells
  cellular absorption after treatment of the cells with free specific antibody: could be prevented
[1]
  cellular absorption of nanoparticles: cellularly absorbed
